The values below are quoted from earlier work in patent US20050004171A1, “Novel substituted benzimidazole dosage forms and method of using same” (priority 1996, published 2005).

The conditions of the series: solubility is altered by temperature; cited from earlier work.

Turning to Calcium glycerophosphate, the Solubility is recorded as 6 g/100 mL.
